Where “and” joins values, the source holds several entries; their conditions need not be identical. Equal entries are not always repeated. This is a selection; strong and weak results do not stand in their true shares.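 In brief: 96-well plates, 48 h treatment, single concentration, percent growth endpoint.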 Calls of active or inactive are those of the source. The calls were made as follows: active = growth percent below 10; inactive = the rest.
Key:
Assay in all cases: NCI-60 one-dose screen, 48 h (100 = growth as untreated, 0 = no growth, -100 = all killed)
DU-145 prostate = settings: 10 µM unless noted
K-562 leukemia = settings: 10 µM unless noted
MALME-3M melanoma = settings: 10 µM unless noted
MDA-MB-231 breast = settings: 10 µM unless noted
RXF 393 renal = settings: 10 µM unless noted
SF-268 CNS = settings: 10 µM unless noted
SF-295 CNS = settings: 10 µM unless noted
SF-539 CNS = settings: 10 µM unless noted
UACC-257 melanoma = settings: 10 µM unless noted
M14 melanoma = settings: 10 µM unless noted
HCT-15 colon = settings: 10 µM unless noted
HT29 colon = settings: 10 µM unless noted
SNB-75 CNS = settings: 10 µM unless noted
SNB-19 CNS = settings: 10 µM unless noted
U251 CNS = settings: 10 µM unless noted
PC-3 prostate = settings: 10 µM unless noted
SK-MEL-5 melanoma = settings: 10 µM unless noted
UACC-62 melanoma = settings: 10 µM unless noted
LOX IMVI melanoma = settings: 10 µM
SK-MEL-28 melanoma = settings: 10 µM unless noted

Measured: growth

CCN(CCCl)/N=N/c1nc2nc[nH]c(=O)c2[nH]1
inactive: DU-145 prostate 105% | K-562 leukemia 105% | MALME-3M melanoma 97.7% | MDA-MB-231 breast 118% | RXF 393 renal 128% | SF-268 CNS 95.2% | SF-295 CNS 104% | SF-539 CNS 103% | UACC-257 melanoma 96.6% | M14 melanoma 101% | HCT-15 colon 109% | HT29 colon 105% | SNB-75 CNS 91.8% | SNB-19 CNS 105% | U251 CNS 98.8% | PC-3 prostate 103% | SK-MEL-5 melanoma 97.6% | UACC-62 melanoma 103% | LOX IMVI melanoma 99% | SK-MEL-28 melanoma 110%

C[As](=O)(O)c1cccc(C(=O)O)c1
inactive: DU-145 prostate 114% | K-562 leukemia 107% | MALME-3M melanoma 102% | MDA-MB-231 breast 109% | RXF 393 renal 95.5% | SF-268 CNS 107% | SF-295 CNS 105% | SF-539 CNS 101% | UACC-257 melanoma 98.1% | M14 melanoma 104% | HCT-15 colon 103% | HT29 colon 102% | SNB-75 CNS 92% | SNB-19 CNS 98.7% | U251 CNS 102% | PC-3 prostate 92% | SK-MEL-5 melanoma 108% | UACC-62 melanoma 101% | LOX IMVI melanoma 95.3% | SK-MEL-28 melanoma 128%

CC1CN1P(=O)(Nc1ncccn1)N1CC1C (stereo not given)
inactive: DU-145 prostate 111% | K-562 leukemia 117% | MALME-3M melanoma 114% | MDA-MB-231 breast 110% | RXF 393 renal 107% | SF-268 CNS 97.1% | SF-295 CNS 111% | SF-539 CNS 89.2% | UACC-257 melanoma 109% | M14 melanoma 99.9% | HCT-15 colon 104% | HT29 colon 99.1% | SNB-75 CNS 71% | SNB-19 CNS 107% | U251 CNS 106% | PC-3 prostate 91.6% | SK-MEL-5 melanoma 105% | UACC-62 melanoma 104% | LOX IMVI melanoma 91.7% | SK-MEL-28 melanoma 111%

Nc1ccc(N(CCCl)CCCl)cc1
inactive: DU-145 prostate 68% | K-562 leukemia 70.7% | MALME-3M melanoma 73.9% | MDA-MB-231 breast 87.4% | RXF 393 renal 75.2% | SF-268 CNS 53.5% | SF-295 CNS 19.8% | SF-539 CNS 37.5% | UACC-257 melanoma 73.4% | M14 melanoma 67.1% | HCT-15 colon 75.3% | HT29 colon 66.9% | SNB-75 CNS 67.5% | SNB-19 CNS 87.1% | U251 CNS 64.4% | PC-3 prostate 70.5% | SK-MEL-5 melanoma 78.9% | UACC-62 melanoma 44.1% | LOX IMVI melanoma 45.7% | SK-MEL-28 melanoma 98.5%

CN(C)P1(Cl)=NP(Cl)(N(C)C)=NP(Cl)(N(C)C)=N1 (stereo not given)
inactive: DU-145 prostate 110% | K-562 leukemia 88.6% | MALME-3M melanoma 106% | MDA-MB-231 breast 113% | RXF 393 renal 96.5% | SF-268 CNS 104% | SF-295 CNS 97.3% | SF-539 CNS 96.9% | UACC-257 melanoma 82% | M14 melanoma 99.7% | HCT-15 colon 97.1% | HT29 colon 88.6% | SNB-75 CNS 97.8% | SNB-19 CNS 108% | U251 CNS 93.8% | PC-3 prostate 87.2% | SK-MEL-5 melanoma 106% | UACC-62 melanoma 100% | LOX IMVI melanoma 103% | SK-MEL-28 melanoma 105%

COc1ccc(N)c([N+](=O)[O-])c1[N+](=O)[O-]
inactive: DU-145 prostate 110% | K-562 leukemia 101% | MALME-3M melanoma 99.3% | MDA-MB-231 breast 92.8% | RXF 393 renal 101% | SF-268 CNS 105% | SF-295 CNS 110% | SF-539 CNS 101% | UACC-257 melanoma 88.7% | M14 melanoma 94.7% | HCT-15 colon 96% | HT29 colon 107% | SNB-75 CNS 87.7% | SNB-19 CNS 111% | U251 CNS 95.4% | PC-3 prostate 62.8% | SK-MEL-5 melanoma 97.6% | UACC-62 melanoma 97.7% | LOX IMVI melanoma 89% | SK-MEL-28 melanoma 105%

OP1OCCO1
inactive: DU-145 prostate 124% | K-562 leukemia 105% | MALME-3M melanoma 98.4% | MDA-MB-231 breast 101% | RXF 393 renal 106% | SF-268 CNS 111% | SF-295 CNS 120% | SF-539 CNS 108% | UACC-257 melanoma 102% | M14 melanoma 111% | HCT-15 colon 111% | HT29 colon 104% | SNB-75 CNS 85.2% | SNB-19 CNS 106% | U251 CNS 105% | PC-3 prostate 91.3% | SK-MEL-5 melanoma 106% | UACC-62 melanoma 101% | LOX IMVI melanoma 105% | SK-MEL-28 melanoma 110%

O=[N+]([O-])c1cc(Oc2ccc([N+](=O)[O-])cc2C(F)(F)F)cc([N+](=O)[O-])c1
inactive: DU-145 prostate 98.6% | K-562 leukemia 77.4% | MALME-3M melanoma 63.7% | MDA-MB-231 breast 74.1% | RXF 393 renal 111% | SF-268 CNS 93.5% | SF-295 CNS 96.6% | SF-539 CNS 107% | UACC-257 melanoma 98% | M14 melanoma 97.5% | HCT-15 colon 91.9% | HT29 colon 103% | SNB-75 CNS 91.7% | SNB-19 CNS 94.6% | U251 CNS 98.5% | PC-3 prostate 90.1% | SK-MEL-5 melanoma 83.1% | UACC-62 melanoma 85.2% | LOX IMVI melanoma 88% | SK-MEL-28 melanoma 115%

CCOC(=O)NC(c1ccccc1[N+](=O)[O-])P(=O)(O)Nc1ncn[nH]1 (stereo not given)
inactive: DU-145 prostate 108% | K-562 leukemia 99.1% | MALME-3M melanoma 104% | MDA-MB-231 breast 102% | RXF 393 renal 117% | SF-268 CNS 110% | SF-295 CNS 101% | SF-539 CNS 96.3% | UACC-257 melanoma 113% | M14 melanoma 107% | HCT-15 colon 98.7% | HT29 colon 104% | SNB-75 CNS 88.7% | SNB-19 CNS 106% | U251 CNS 108% | PC-3 prostate 102% | SK-MEL-5 melanoma 103% | UACC-62 melanoma 101% | LOX IMVI melanoma 92.4% | SK-MEL-28 melanoma 105%

CC(Cl)CN(CC(C)Cl)C(=O)c1ccccc1 (stereo not given)
inactive: DU-145 prostate 103% | K-562 leukemia 100% | MALME-3M melanoma 102% | MDA-MB-231 breast 88% | RXF 393 renal 115% | SF-268 CNS 95.6% | SF-295 CNS 106% | SF-539 CNS 103% | UACC-257 melanoma 110% | M14 melanoma 103% | HCT-15 colon 97.5% | HT29 colon 98.2% | SNB-75 CNS 85.1% | SNB-19 CNS 113% | U251 CNS 99.7% | PC-3 prostate 89.9% | SK-MEL-5 melanoma 95.1% | UACC-62 melanoma 108% | LOX IMVI melanoma 93.7% | SK-MEL-28 melanoma 94.5%

CCCC1OP(N)(=O)OCC1CC (stereo not given)
inactive: DU-145 prostate 115% and 98.1% | K-562 leukemia 107% and 143% | MALME-3M melanoma 134% and 95% | MDA-MB-231 breast 102% and 108% | RXF 393 renal 118% and 104% | SF-268 CNS 104% and 95.3% | SF-295 CNS 114% and 105% | SF-539 CNS 115% and 98.5% | UACC-257 melanoma 108% and 110% | M14 melanoma 105% and 88.7% | HCT-15 colon 109% and 105% | HT29 colon 109% and 94.3% | SNB-75 CNS 115% and 93.5% | SNB-19 CNS 101% and 97.4% | U251 CNS 109% and 102% | PC-3 prostate 94.8% and 94.6% | SK-MEL-5 melanoma 100% and 97% | UACC-62 melanoma 95% and 97.6% | LOX IMVI melanoma 103% and 104% | SK-MEL-28 melanoma 124% and 108%

CCN(CCCl)Cc1ccccc1
inactive: DU-145 prostate 112% | K-562 leukemia 102% | MALME-3M melanoma 118% | MDA-MB-231 breast 102% | RXF 393 renal 115% | SF-268 CNS 95.5% | SF-295 CNS 103% | SF-539 CNS 98.3% | UACC-257 melanoma 107% | M14 melanoma 109% | HCT-15 colon 96.5% | HT29 colon 92.1% | SNB-75 CNS 76.8% | SNB-19 CNS 103% | U251 CNS 77.2% | PC-3 prostate 83.3% | SK-MEL-5 melanoma 108% | UACC-62 melanoma 98.1% | LOX IMVI melanoma 106% | SK-MEL-28 melanoma 104%

CC(C)N(CCCl)/N=N/c1nc2nc[nH]c(=O)c2[nH]1
inactive: DU-145 prostate 110% | K-562 leukemia 96.8% | MALME-3M melanoma 92.3% | MDA-MB-231 breast 105% | RXF 393 renal 143% | SF-268 CNS 105% | SF-295 CNS 98.4% | SF-539 CNS 102% | UACC-257 melanoma 101% | M14 melanoma 109% | HCT-15 colon 105% | HT29 colon 96.5% | SNB-75 CNS 98.9% | SNB-19 CNS 103% | U251 CNS 107% | PC-3 prostate 105% | SK-MEL-5 melanoma 102% | UACC-62 melanoma 99.6% | LOX IMVI melanoma 99.2% | SK-MEL-28 melanoma 112%

CCOP(=O)(Nc1ccccc1)OCC
inactive: DU-145 prostate 115% | K-562 leukemia 99.6% | MALME-3M melanoma 104% | MDA-MB-231 breast 101% | RXF 393 renal 101% | SF-268 CNS 101% | SF-295 CNS 127% | SF-539 CNS 106% | UACC-257 melanoma 86.5% | M14 melanoma 101% | HCT-15 colon 101% | HT29 colon 103% | SNB-75 CNS 94% | SNB-19 CNS 92% | U251 CNS 99% | PC-3 prostate 94.4% | SK-MEL-5 melanoma 103% | UACC-62 melanoma 82.3% | LOX IMVI melanoma 98.1% | SK-MEL-28 melanoma 117%

Cc1ccccc1OP(=O)(Cl)Oc1ccccc1C
inactive: DU-145 prostate 136% | K-562 leukemia 102% | MALME-3M melanoma 91.8% | MDA-MB-231 breast 105% | RXF 393 renal 105% | SF-268 CNS 114% | SF-295 CNS 110% | SF-539 CNS 100% | UACC-257 melanoma 105% | M14 melanoma 99.4% | HCT-15 colon 108% | HT29 colon 99.4% | SNB-75 CNS 96.2% | SNB-19 CNS 100% | U251 CNS 105% | PC-3 prostate 100% | SK-MEL-5 melanoma 101% | UACC-62 melanoma 94.7% | LOX IMVI melanoma 110% | SK-MEL-28 melanoma 112%

CCN(CCCl)c1ccc(CCC(=O)O)cc1
inactive: DU-145 prostate 107% | K-562 leukemia 90.1% | MALME-3M melanoma 98.3% | MDA-MB-231 breast 112% | RXF 393 renal 110% | SF-268 CNS 102% | SF-295 CNS 100% | SF-539 CNS 106% | UACC-257 melanoma 88.7% | M14 melanoma 98.1% | HCT-15 colon 97.1% | HT29 colon 88.3% | SNB-75 CNS 96.4% | SNB-19 CNS 95.4% | U251 CNS 92% | PC-3 prostate 91.7% | SK-MEL-5 melanoma 99.9% | UACC-62 melanoma 64.4% | LOX IMVI melanoma 99.8% | SK-MEL-28 melanoma 104%
